Test system: ob/ob mice
Assay: Combination use with DPPIV inhibitor sitagliptin, postprandial hyperglycemia in ob/ob mice
Type: in vivo
Settings: single use; single oral dose (Example 69 0.1 mg/kg; sitagliptin 5 mg/lm) one hour before liquid food
Procedure: B6.V-Lepob/J (ob/ob) mice and control B6.V-Lepob/J (?/+) mice (male, 6 to 7 weeks old, n=8, Charles River Japan) were used. […] One hour later, liquid food (ensure H, Abbott Japan, Co., Ltd., 1.5 kcal/mL) was orally administered. The blood sugar levels immediately before, and 15, 30, 60, and 90 minutes after administration of the liquid food were measured.

## N[C@@H](CC(=O)N1CCn2c(nnc2C(F)(F)F)C1)Cc1cc(F)c(F)cc1F [sitagliptin, reference compound]
  area under the blood concentration-time curve (blood sugar) after liquid food: normalized
  blood sugar increase 15 minutes after the administration of liquid food: could not normalize

— patent publication US8883824B2, “3-(4-aminophenyl)-2-furancarboxylic acid derivative and pharmaceutically acceptable salt thereof” (Sumitomo Dainippon Pharma Co., Ltd., priority 2009, dated 2014)
